Earlier results on 1 molecule are cited in patent US12599600B2, “Compositions and methods for preventing and treating headache through enhancing 2-arachydonyl glyerol activity” (Arizona Board of Regents on Behalf of the University of …, priority 2020, dated 2026).

Chains of the proteins cited; added tags and fusions are not shown.
UniProt P34972, whole entry: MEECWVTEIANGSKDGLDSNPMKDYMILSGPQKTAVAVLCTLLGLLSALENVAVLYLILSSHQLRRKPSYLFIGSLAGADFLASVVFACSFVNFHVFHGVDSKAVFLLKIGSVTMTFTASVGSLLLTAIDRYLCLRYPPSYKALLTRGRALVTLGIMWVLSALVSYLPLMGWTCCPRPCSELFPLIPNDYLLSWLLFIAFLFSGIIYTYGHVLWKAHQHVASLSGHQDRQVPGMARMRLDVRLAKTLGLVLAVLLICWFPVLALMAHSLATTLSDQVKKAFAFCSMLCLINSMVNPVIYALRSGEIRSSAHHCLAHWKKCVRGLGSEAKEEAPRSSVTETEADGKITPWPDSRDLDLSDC

Data set [1] concerns the target T1, CB2R (Homo sapiens, UniProt P34972). As to conditions: cited from earlier work.
For data set [2], the target named is T1, CB2R. As to conditions: cited from earlier work. This is another data set of the same source.

Broadly, the EC50 is the midpoint of the concentration-response curve. As a reminder, the Ki is a dissociation constant, usually derived from enzyme kinetics or from competition with a known ligand. Regarding `CCCCC/C=C\C/C=C\C/C=C\C/C=C\CCCC(=O)NCCO` [AEA, anandamide], on CB2R [1], the concentration giving a half-maximal response (EC50) is 16 µM. Moreover, the Ki at CB2R [2] was 0.279 to 1.94 µM.
